In patent US20260116920A1, “HUMAN TRANSFERRIN RECEPTOR BINDING PEPTIDE” (PEPTIDREAM INC., priority 2021, published 2026):
Where two headings read alike, the source gives them in different places.

Protein sequences, listed by entry. Tags and fused reporters are not part of them. Residues count along the entry.
UniProt P02786, 89-760 limits assumed: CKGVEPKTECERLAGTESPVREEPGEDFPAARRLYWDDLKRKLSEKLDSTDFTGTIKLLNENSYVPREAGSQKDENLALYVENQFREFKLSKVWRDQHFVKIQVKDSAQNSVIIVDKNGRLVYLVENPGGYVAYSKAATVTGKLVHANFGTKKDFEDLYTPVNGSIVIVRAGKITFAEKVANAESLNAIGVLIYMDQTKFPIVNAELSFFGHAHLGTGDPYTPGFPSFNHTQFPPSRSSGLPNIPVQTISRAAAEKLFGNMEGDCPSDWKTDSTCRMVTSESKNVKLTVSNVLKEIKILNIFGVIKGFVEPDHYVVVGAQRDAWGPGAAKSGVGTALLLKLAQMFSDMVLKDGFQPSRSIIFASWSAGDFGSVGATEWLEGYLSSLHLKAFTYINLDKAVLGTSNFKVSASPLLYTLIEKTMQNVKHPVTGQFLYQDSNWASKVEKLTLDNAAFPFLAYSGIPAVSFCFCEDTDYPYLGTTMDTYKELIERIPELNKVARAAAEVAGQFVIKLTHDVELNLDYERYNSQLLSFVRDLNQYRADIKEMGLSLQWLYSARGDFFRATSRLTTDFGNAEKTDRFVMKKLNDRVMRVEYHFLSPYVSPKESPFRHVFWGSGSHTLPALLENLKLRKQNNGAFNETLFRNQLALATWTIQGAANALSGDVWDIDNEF

Target: T1, human transferrin receptor (hTfR) (Homo sapiens, UniProt P02786)
T1 construct: made in house
Test: Evaluation of molecular interaction between transferrin receptor (hTfR) and peptide using surface plasmon resonance (SPR)
Format: binding
Settings: KD class of the peptide with linker for hTfR by surface plasmon resonance
Method: Evaluation Test of Molecular Interaction Between Transferrin Receptor (hTfR) and Peptide Using Surface Plasmon Resonance (SPR)
The intermolecular interactions of various synthesized peptides with the transferrin receptor (hTfR) by surface plasmon resonance (SPR) of the peptides were tested by the methods described below. Specific test methods are shown below.
NTA sensor chip (Global Life Sciences Technologies Japan K.K.) was inserted into BiacoreT200 (Global Life Sciences Technologies Japan K.K.), then the priming operation was performed three times by using running buffer containing: 10 mM HEPES pH 8.0 (Nacalai Tesque, Inc.), 150 mM NaCl (Nacalai Tesque, Inc.), 0.05% Tween 20 (Nacalai Tesque, Inc.), 0.1% BSA (SIGMA-ALDRICH) and 1.0% DMSO (FUJIFILM Wako Pure Chemical Corporation), and equilibrated at a flow rate of 30 μL/min. 350 mM EDTA solution was reacted at a flow rate of 10 μL/min for 60 seconds, 0.5 mM […] solution (Kishida Chemical Co., Ltd.) was reacted at a flow rate of 10 μL/min for 60 seconds, and then the NTA sensor chip was washed with 3 mM EDTA solution (Nacalai Tesque, Inc.) at a flow rate of 10 μL/min for 60 seconds. After mixing 50 μL each of 60 mM EDC solution (Global Life Science Technologies Japan K.K.) and 650 mM NHS solution (Global Life Science Technologies Japan K.K.), the reaction was carried out at a flow rate of 10 μL/min for 420 seconds. 150 μL of 0.5 μM hTfR dimer solution was prepared by dilution with running buffer and reacted at a flow rate of 10 μL/min for 300 seconds to immobilize hTfR on the NTA sensor chip. For the human transferrin receptor (hTfR), recombinant hTfR described in Example 2 of WO2018/124121 was used. After immobilization, capping was performed by reacting with 1.0 M ethanolamine solution (Global Life Sciences Technologies Japan K.K.) at a flow rate of 10 μL/min for 420 seconds. Peptide lysate prepared in DMSO solution to 10 mM was diluted with running buffer to be a final concentration of 10 μM peptide lysate, then peptide solutions of 100 nM, 50 nM, 25 nM, 10 nM, and 5 nM were prepared. Using the above samples, the kinetics of the peptide against hTfR was obtained by SPR measurement.
The kinetic evaluation model was single-cycle kinetics, and curve fitting was performed using Biacore T200 Evaluation Software Version 3.0 (Global Life Science Technologies Japan K.K.). The binding of the peptide to hTfR was evaluated by performing curve fitting on the obtained sensorgram by least squares method and obtaining the KD value.

Structure (SMILES)	Kd (read-out: SPR)	Kd (SPR)
CC[C@H](C)[C@@H]1NC(=O)[C@H](Cc2ccc(OCC(=O)O)cc2)NC(=O)[C@H](Cc2ccc(O)cc2)NC(=O)[C@H](CC(N)=O)NC(=O)[C@H](Cc2cn(CC(=O)O)c3ccccc23)NC(=O)[C@H](C(C)C)NC(=O)[C@H](Cc2cccc(Cl)c2)N(C)C(=O)[C@H](C(C)C)NC(=O)[C@H](C)NC(=O)CSC[C@@H](C(=O)NCC(=O)N(C)CC(=O)N(C)CC(=O)N(C)CC(=O)N(C)CC(=O)N(C)CC(=O)N[C@@H](CCCCN=[N+]=[N-])C(N)=O)NC(=O)[C@H](Cc2ccc(O)cc2)N(C)C(=O)[C@H](Cc2cccc(C(=O)O)c2)NC(=O)[C@H](CCCNC(=N)N)NC(=O)[C@H](CCC(N)=O)NC(=O)[C@H]([C@@H](C)CC)NC1=O [compound 280]	–	1 to 100 nM
CC[C@H](C)[C@@H]1NC(=O)[C@H](Cc2ccc(OCC(=O)O)cc2)NC(=O)[C@H](Cc2ccc(O)cc2)NC(=O)[C@H](CC(N)=O)NC(=O)[C@H](Cc2cn(CC(=O)O)c3ccccc23)NC(=O)[C@H](C(C)C)NC(=O)[C@H](Cc2cccc(Cl)c2)N(C)C(=O)[C@H](C(C)C)NC(=O)[C@H](C)NC(=O)CSC[C@@H](C(=O)NCC(=O)NCCOCCOCCOCCOCCOCCOCCOCCOCCOCCOCCOCCOCCOCCOCCOCCOCCOCCOCCOCCOCCOCCOCCOCCOCCC(=O)N[C@@H](CCCCN)C(N)=O)NC(=O)[C@H](Cc2ccc(O)cc2)N(C)C(=O)[C@H](Cc2cccc(C(=O)O)c2)NC(=O)[C@H](CCCCN2CCOCC2)NC(=O)[C@H](CCCCN2CCOCC2)NC(=O)[C@H]([C@@H](C)CC)NC1=O [compound 282]	1 to 100 nM	–
CC[C@H](C)[C@@H]1NC(=O)[C@H](Cc2ccc(OCC(=O)O)cc2)NC(=O)[C@H](Cc2ccc(O)cc2)NC(=O)[C@H](CC(N)=O)NC(=O)[C@H](Cc2cn(CC(=O)O)c3ccccc23)NC(=O)[C@H](C(C)C)NC(=O)[C@H](Cc2cccc(Cl)c2)N(C)C(=O)[C@H](C(C)C)NC(=O)[C@H](C)NC(=O)CSC[C@@H](C(=O)NCC(=O)N[C@H](CO)C(=O)N[C@H](CO)C(=O)N[C@H](CO)C(=O)N[C@H](CO)C(=O)N[C@H](CO)C(=O)N[C@@H](CCCCN)C(N)=O)NC(=O)[C@H](Cc2ccc(O)cc2)N(C)C(=O)[C@H](Cc2cccc(C(=O)O)c2)NC(=O)[C@H](CCCCN2CCOCC2)NC(=O)[C@H](CCCCN2CCOCC2)NC(=O)[C@H]([C@@H](C)CC)NC1=O [compound 283]	1 to 100 nM	–
CC[C@H](C)[C@@H]1NC(=O)[C@H](Cc2ccc(OCC(=O)O)cc2)NC(=O)[C@H](Cc2ccc(O)cc2)NC(=O)[C@H](CC(N)=O)NC(=O)[C@H](Cc2cn(CC(=O)O)c3ccccc23)NC(=O)[C@H](C(C)C)NC(=O)[C@H](Cc2cccc(Cl)c2)N(C)C(=O)[C@H](C(C)C)NC(=O)[C@H](C)NC(=O)CSC[C@@H](C(=O)NCC(=O)N[C@H](CO)C(=O)N[C@H](CO)C(=O)N[C@H](CO)C(=O)N[C@H](CO)C(=O)N[C@H](CO)C(=O)N[C@H](CO)C(=O)N[C@H](CO)C(=O)N[C@H](CO)C(=O)N[C@H](CO)C(=O)N[C@H](CO)C(=O)N[C@@H](CCCCN)C(N)=O)NC(=O)[C@H](Cc2ccc(O)cc2)N(C)C(=O)[C@H](Cc2ccccc2)NC(=O)[C@H](CCCNC(=N)N)NC(=O)[C@H](CCCNC(=N)N)NC(=O)[C@H]([C@@H](C)CC)NC1=O [compound 284]	1 to 100 nM	–
CC[C@H](C)[C@@H]1NC(=O)[C@H](Cc2ccc(O)cc2)NC(=O)[C@H](Cc2ccc(O)cc2)NC(=O)[C@H](CC(N)=O)NC(=O)[C@H](Cc2c[nH]c3ccccc23)NC(=O)[C@H](C(C)C)NC(=O)[C@H](Cc2ccccc2)N(C)C(=O)[C@H](C(C)C)NC(=O)[C@H](C)NC(=O)CSC[C@@H](C(=O)NCC(=O)N[C@H](CCC(=O)O)C(=O)N[C@H](CCC(=O)O)C(=O)N[C@H](CCC(=O)O)C(=O)N[C@H](CO)C(=O)N[C@H](CO)C(=O)N[C@@H](CCCCNC(=O)C2CCC(CN3C(=O)C=CC3=O)CC2)C(N)=O)NC(=O)[C@H](Cc2ccc(O)cc2)N(C)C(=O)[C@H](Cc2ccc(O)cc2)NC(=O)[C@H](CCCNC(=N)N)NC(=O)[C@H](CCCNC(=N)N)NC(=O)[C@H]([C@@H](C)CC)NC1=O (some centres unmarked) [compound 289]	1 to 100 nM	–
CC[C@H](C)[C@@H]1NC(=O)[C@H](Cc2ccc(OCC(=O)O)cc2)NC(=O)[C@H](Cc2ccc(O)cc2)NC(=O)[C@H](CC(N)=O)NC(=O)[C@H](Cc2cn(CC(=O)O)c3ccccc23)NC(=O)[C@H](C(C)C)NC(=O)[C@H](Cc2cccc(Cl)c2)N(C)C(=O)[C@H](C(C)C)NC(=O)[C@H](C)NC(=O)CSC[C@@H](C(=O)NCC(=O)NCC(=O)NCC(=O)NCC(=O)N[C@@H](CO)C(=O)N[C@@H](CO)C(=O)N[C@@H](CCCCNC(=O)C2CCC(CN3C(=O)C=CC3=O)CC2)C(N)=O)NC(=O)[C@H](Cc2ccc(O)cc2)N(C)C(=O)[C@H](Cc2cccc(C(=O)O)c2)NC(=O)[C@H](CCCNC(=N)N)NC(=O)[C@H](CCC(N)=O)NC(=O)[C@H]([C@@H](C)CC)NC1=O (some centres unmarked) [compound 291]	–	1 to 100 nM
CC[C@H](C)[C@@H]1NC(=O)[C@H](Cc2ccc(OCC(=O)O)cc2)NC(=O)[C@H](Cc2ccc(O)cc2)NC(=O)[C@H](CC(N)=O)NC(=O)[C@H](Cc2cn(CC(=O)O)c3ccccc23)NC(=O)[C@H](C(C)C)NC(=O)[C@H](Cc2cccc(Cl)c2)N(C)C(=O)[C@H](C(C)C)NC(=O)[C@H](C)NC(=O)CSC[C@@H](C(=O)NCC(=O)N[C@@H](CCCCNC(=O)C2CCC(CN3C(=O)C=CC3=O)CC2)C(N)=O)NC(=O)[C@H](Cc2ccc(O)cc2)N(C)C(=O)[C@H](Cc2cccc(C(=O)O)c2)NC(=O)[C@H](CCCCN2CCOCC2)NC(=O)[C@H](CCCCN2CCOCC2)NC(=O)[C@H]([C@@H](C)CC)NC1=O (some centres unmarked) [compound 292]	1 to 100 nM	–

Now from value to compound, other results behind:

Kd (read-out: SPR)	Structure (SMILES)	Kd (SPR)
< 1 nM	CC[C@H](C)[C@@H]1NC(=O)[C@H](Cc2ccc(OC)cc2)NC(=O)[C@H](Cc2ccc(O)cc2)NC(=O)[C@H](CC(N)=O)NC(=O)[C@H](Cc2c[nH]c3ncccc23)NC(=O)[C@H](C(C)C)NC(=O)[C@H](Cc2cccc(Cl)c2)N(C)C(=O)[C@H](C(C)C)NC(=O)[C@H](C)NC(=O)CSC[C@@H](C(=O)NCC(=O)N[C@@H](CCCCN=[N+]=[N-])C(N)=O)NC(=O)[C@H](Cc2ccc(O)cc2)N(C)C(=O)[C@H](Cc2ccncc2)NC(=O)[C@H](CCCNC(=N)N)NC(=O)[C@H](CCCNC(=N)N)NC(=O)[C@H]([C@@H](C)CC)NC1=O [compound 281]	–
< 1 nM	CC[C@H](C)[C@@H]1NC(=O)[C@H](Cc2ccc(OCC(=O)O)cc2)NC(=O)[C@H](Cc2ccc(O)cc2)NC(=O)[C@H](CC(N)=O)NC(=O)[C@H](Cc2c[nH]c3ncccc23)NC(=O)[C@H](C(C)C)NC(=O)[C@H](Cc2cccc(Cl)c2)N(C)C(=O)[C@H](C(C)C)NC(=O)[C@H](C)NC(=O)CSC[C@@H](C(=O)NCC(=O)N[C@@H](CCCCN)C(N)=O)NC(=O)[C@H](Cc2ccc(O)cc2)N(C)C(=O)[C@H](Cc2cccc(C(=O)O)c2)NC(=O)[C@H](CCCNC(=N)N)NC(=O)[C@H](CCC(=O)NCCOCCOCCOCCOCCOCCOCCOCCOC)NC(=O)[C@H]([C@@H](C)CC)NC1=O [compound 286]	–
< 1 nM	CC[C@H](C)[C@@H]1NC(=O)[C@H](Cc2ccc(OCC(=O)O)cc2)NC(=O)[C@H](Cc2ccc(O)cc2)NC(=O)[C@H](CC(N)=O)NC(=O)[C@H](Cc2cn(CC(=O)O)c3ccccc23)NC(=O)[C@H](C(C)C)NC(=O)[C@H](Cc2cccc(Cl)c2)N(C)C(=O)[C@H](C(C)C)NC(=O)[C@H](C)NC(=O)CSC[C@@H](C(=O)NCC(=O)N[C@@H](CCCCN)C(N)=O)NC(=O)[C@H](Cc2ccc(O)cc2)N(C)C(=O)[C@H](Cc2cccc(C(=O)O)c2)NC(=O)[C@H](CCCNC(=N)N)NC(=O)[C@H](CCC(N)=O)NC(=O)[C@H]([C@@H](C)CC)NC1=O [compound 287]	–
1 to 100 nM	CC[C@H](C)[C@@H]1NC(=O)[C@H](Cc2ccc(OCC(=O)O)cc2)NC(=O)[C@H](Cc2ccc(O)cc2)NC(=O)[C@H](CC(N)=O)NC(=O)[C@H](Cc2cn(CC(=O)O)c3ccccc23)NC(=O)[C@H](C(C)C)NC(=O)[C@H](Cc2cccc(Cl)c2)N(C)C(=O)[C@H](C(C)C)NC(=O)[C@H](C)NC(=O)CSC[C@@H](C(=O)NCC(=O)N[C@@H](CCCCNC(=O)C2CCC(CN3C(=O)C=CC3=O)CC2)C(N)=O)NC(=O)[C@H](Cc2ccc(O)cc2)N(C)C(=O)[C@H](Cc2cccc(C(=O)O)c2)NC(=O)[C@H](CCCNC(=N)N)NC(=O)[C@H](CCC(N)=O)NC(=O)[C@H]([C@@H](C)CC)NC1=O (some centres unmarked) [compound 290]	–
